# Test results: US10300140B2, “Sur-binding proteins against ERBB3” (I2 PHARMACEUTICALS, INC., priority 2012, dated 2019)
# Experiments:
# SKBR3 cells = test: SKBR3 proliferation with anti-ErbB2 and anti-ErbB3 agents; format: cell-based, human; conditions: 1 ng/ml NRG, 3 days
# Description: The ability of sur-binding proteins to enhance the activity of trastuzumab and pertuzumab (anti-ErbB2 antibodies) was investigated in the ErbB2 overexpressing cell line SKBR3. ErbB2 overexpressing tumors were heterogeneous with respect to the amount of ligand in the tumor microenvironment. The anti-proliferative capacity of anti-ErbB2 and anti-ErbB3 agents in the absence (FIGS. 31 A, B, and C) and in the presence (FIGS. 31 D, E, and F) of NRG was examined.
# Agents were applied to cells in complete medium and proliferation was determined after 6 days using Cell Titer-Glo® (Promega).
# Agents were applied to cells in complete medium for 1 hour followed by stimulation with 1 ng/ml NRG. Proliferation was determined after 3 days using Cell Titer-Glo® (Promega).
# [1] = test system: phosphorylation of ErbB3, AKT and ERK1/2 in SKBR3 cells; test: Ligand-induced phosphorylation in SKBR3 cells; format: cell-based, human; conditions: 1 ng/ml NRG 12 minutes
# Description: Ligand induced activation was measured by increased phosphorylation of ErbB3, AKT and ERK1/2. 500,000 SKBR3 cells were plated into wells of a 12 well tissue culture dish in serum free medium. The cells were incubated for 1 hour with the indicated amounts of SgG (see FIG. 29A, FIG. 29B, and FIG. 29C). They were then stimulated with 1 ng/ml NRG for 12 minutes. Cells were then washed in ice cold PBS, and lysed. Phosphorylated AKT, phosphorylated ErbB3 and phosphorylated ERK1/2 were measured in the lysates using ELISA kits from Cell Signaling Technologies®.
substance,measurement,setting,value
Trastuzumab: marketed antibody that targets ErbB2 and binds to the juxtamembrane extracellular domain,"inhibition of growth, single agent, NRG stimulated",SKBR3 cells,did not appreciably inhibit growth
same,"inhibition of growth, single agent, NRG stimulated",SKBR3 cells; listed as trastuzumab,little detectable activity as a single agent
same,"inhibition of ligand-induced phosphorylation of AKT, ErbB3 and ERK1/2",[1],did not inhibit phosphorylation
